This is a selection; strong and weak results do not stand in their true shares. Calls of active or inactive are those of the source. The call rests on the fitted dose curve; in most records, active means well fitted inhibition curve with a large enough effect; inconclusive means small, poorly fitted or top-dose-only effect, or effect the other way; inactive means flat fitted curve, though single readings scatter.
The compounds below were run against Protein phosphatase EYA2 (Homo sapiens) (UniProt O00167) (assay: qHTS Assay for Inhibitors of the Phosphatase Activity of Eya2). Conditions: recombinant Eya2, OMFP fluorescence dephosphorylation (OMFP is methylfluorescein phosphate); at 76.9 µM (top of the series).
Description: The Eya family of proteins are essential co-activators of the Six1 transcription factor. Six1 is a developmental gene that is abnormally re-expressed in a large percentage of breast cancers. This over-expression plays a causal role in the initiation and metastatic development of breast cancers. The Eya family of proteins was also found to contain a unique HAD phosphatase domain with protein tyrosine phosphatase activity which can potentially play a role in Six1-mediated breast tumorigenesis. […] We have developed and optimized a 1536 well fluorescence-based HTS assay targeting the phosphatase activity of Eya2. Inhibitors found against Eya2 could serve as potential therapeutic tools to inhibit Six1-mediated breast tumorigenesis and to increase the efficiency of radiation and certain chemo therapy. These inhibitors could also be used as chemical probes to study the function of Eya2's phosphatase activity and its role in Six1-mediated breast tumorigenesis.
The Eya2 enzyme was kindly provided by the laboratory of Dr. Rui Zhao. The 3-O-methyl-fluorescein phosphate (OMFP) substrate and all buffer reagents were purchased from Sigma Aldrich. qHTS Assay Setup: 1. Buffer- 50 mM HEPES pH 7.5, 50 mM NaCl, 5 uM MgCl2, 0.05% BSA, 1 mM DTT. 2. OMFP Stock- 10 mM solution prepared in 100% DMSO and stored in single use aliquots at -20C. Assay Procedure- 1. Dispense 1.5 ul per well of Eya2 at 0.2 uM in black medium binding 1536 well Greiner plate 2. Transfer 23 nl of compound and control compound (EGTA) to plate 3. Incubate at ambient for 10 minutes 4. Dispense 1.5 ul per well of OMFP at 50 uM 5. Incubate at ambient for 10 minutes 6. Read on ViewLux using Excitation = 485 nm, Emission = 525 nm
On the % scale 0 is the no-effect control and ±100 the full control effect.

Sequences of proteins named here, by UniProt entry; tags and fusion partners are left off.
UniProt O00167, whole entry: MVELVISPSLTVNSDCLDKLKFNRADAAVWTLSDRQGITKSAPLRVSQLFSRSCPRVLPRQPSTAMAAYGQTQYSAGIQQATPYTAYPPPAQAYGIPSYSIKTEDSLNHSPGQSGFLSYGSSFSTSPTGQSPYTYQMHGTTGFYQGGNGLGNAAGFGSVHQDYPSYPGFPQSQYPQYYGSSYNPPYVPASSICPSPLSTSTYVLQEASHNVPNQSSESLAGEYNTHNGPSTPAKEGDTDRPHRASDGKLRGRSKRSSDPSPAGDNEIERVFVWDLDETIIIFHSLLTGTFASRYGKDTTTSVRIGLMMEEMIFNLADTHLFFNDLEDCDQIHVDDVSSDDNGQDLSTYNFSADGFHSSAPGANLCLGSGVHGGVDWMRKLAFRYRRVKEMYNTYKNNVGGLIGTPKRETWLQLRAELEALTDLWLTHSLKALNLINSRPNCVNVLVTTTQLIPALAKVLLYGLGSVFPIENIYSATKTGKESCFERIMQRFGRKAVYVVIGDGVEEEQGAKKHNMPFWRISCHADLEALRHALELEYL

| SMILES | activity, negative = inhibition |
| --- | --- |
| CP(=O)(Nc1ccc(SC(F)(F)F)cc1)Oc1ccccc1 (configuration not stated) | inactive: -5.24% |
| CCCOc1ccc(NP(C)(=O)Oc2ccc(Cl)cc2)cc1 (configuration not stated) | inactive: -4.46% |
| CN1CCCCC1COC(=O)C1(O)c2ccccc2CCc2ccccc21 (configuration not stated) | inactive: 7.57% |
| COc1ccccc1OP(C)(=O)Nc1c(C)cccc1C (configuration not stated) | inactive: -5.7% |
| CC1=C2N=C(C=C3N=C(C(C)=C4[N-][C@@](C)([C@@H]5N=C1[C@](C)(CCC(=O)NC[C@@H](C)OP(=O)([O-])O[C@H]1[C@@H](O)[C@@H](n6cnc7cc(C)c(C)cc76)O[C@@H]1CO)[C@H]5CC(N)=O)[C@@](C)(CC(N)=O)[C@@H]4CCC(N)=O)[C@@](C)(CC(N)=O)[C@@H]3CCC(N)=O)C(C)(C)[C@@H]2CCC(N)=O.[C-]#N.[Co+3] | inactive: -9.1% |
| Cc1nc2ccc3ccccc3c2s1.O=[N+]([O-])c1cc([N+](=O)[O-])c(O)c([N+](=O)[O-])c1 | inactive: 13.2% |
| O=[N+]([O-])c1cc([N+](=O)[O-])c(-n2nnc3ccccc32)c([N+](=O)[O-])c1 | inactive: 1.23% |
| Cc1ccc(C)c(NP(C)(=O)Oc2ccccc2)c1 (configuration not stated) | inactive: 2.07% |
| CP(=O)(Nc1cccc(Br)c1)Oc1ccccc1 (configuration not stated) | inactive: -1.52% |
| Cc1cc(C)cc(OP(C)(=O)Nc2ccccn2)c1 (configuration not stated) | inactive: -24.5% |
| CCOC(=O)c1ccc(NP(C)(=O)Oc2cc(C)cc(C)c2)cc1 (configuration not stated) | inactive: -8.46% |
| Cc1cc(C)cc(OP(C)(=O)Nc2ccc(C)cc2C)c1 (configuration not stated) | inactive: 3.63% |
| COc1ccccc1OP(C)(=O)Nc1cccc(Br)c1 (configuration not stated) | inactive: -22.9% |
| CC1=NCCc2c1[nH]c1ccccc21.O=[N+]([O-])c1cc([N+](=O)[O-])c(O)c([N+](=O)[O-])c1 | inactive: 4.9% |
| Cc1cc(C)cc(OP(C)(N)=O)c1 (configuration not stated) | inactive: 9.8% |
| COc1ccc(OP(C)(=O)Nc2cccc(F)c2)cc1 (configuration not stated) | inactive: 32.7% |
| COc1ccccc1OP(C)(=O)Nc1cc(Cl)ccc1C (configuration not stated) | inactive: 1.53% |
| Cc1ccc(NP(C)(=O)Oc2ccccc2)c(C)c1 (configuration not stated) | inactive: -2.41% |
| COc1ccccc1OP(C)(=O)Nc1ccc(C)cc1 (configuration not stated) | inactive: 11.6% |
| CCOC(=O)c1ccc(NP(C)(=O)Oc2ccccc2)cc1 (configuration not stated) | inactive: -2.09% |
| O=[N+]([O-])c1ccc2c(c1)C=Nc1ccccc1O2 | inactive: -3.19% |
| Cc1cccc(C)c1OP(C)(N)=O (configuration not stated) | inactive: -9.1% |
| CC(C)(C)c1ccc(OP(C)(=O)Nc2ccc(SC(F)(F)F)cc2)cc1 (configuration not stated) | inactive: -18.2% |
| O=[N+]([O-])c1cc([N+](=O)[O-])c(Nc2cccnc2)c([N+](=O)[O-])c1 | inactive: -11.1% |
| CCN(CC)CCCOC(=O)C(O)(c1ccccc1)c1ccccc1 | inactive: -23.2% |
| CCOC(=O)c1ccc(NP(C)(=O)Oc2ccc(OC)cc2)cc1 (configuration not stated) | inactive: -5.18% |

| SMILES | activity, negative = inhibition |
| --- | --- |
| CCOP(C)(=S)SCC(=O)NC(C)C(=O)O (configuration not stated) | inactive: 10.3% |
| Cc1cc(C)cc(OP(C)(=O)Nc2ccc(SC(F)(F)F)cc2)c1 (configuration not stated) | inactive: 0.0876% |
| CCc1ccc(OP(C)(=O)N2CCN(c3ccc([N+](=O)[O-])cc3)CC2)cc1 (configuration not stated) | inactive: 6.74% |
| CP(=O)(NC(=O)Nc1ccccc1)Oc1ccccc1 (configuration not stated) | inactive: -5.08% |
| CP(=O)(Oc1ccccc1)OC(c1ccccc1)C(F)(F)F (configuration not stated) | inactive: 4.65% |
| CP(=O)(Nc1ccc(SC(F)(F)F)cc1)Oc1ccc(Cl)cc1 (configuration not stated) | inactive: -18.6% |
| Cc1cccc(C)c1OP(C)(=O)Nc1ccc(SC(F)(F)F)cc1 (configuration not stated) | inactive: -21.4% |
| CP(=O)(Nc1ccccc1Br)Oc1ccccc1 (configuration not stated) | inactive: 4.32% |
| COc1ccccc1OP(C)(=O)Nc1ccccc1 (configuration not stated) | inactive: 5.95% |
| CP(=S)(Nn1cnnc1)Oc1ccccc1 (configuration not stated) | inactive: -6.17% |
| CCOC(=O)c1ccc(NP(C)(=O)Oc2ccc(Cl)cc2)cc1 (configuration not stated) | inactive: 3.2% |
| CP(=O)(OC12CC3CC(CC(C3)C1)C2)OC12CC3CC(CC(C3)C1)C2 | inactive: -11.5% |
| CN(C)C(=O)c1c([N+](=O)[O-])cc([N+](=O)[O-])cc1[N+](=O)[O-] | inactive: 5.11% |
| CC(C)(C)c1ccc(OP(C)(=O)O)cc1 | inactive: 9.14% |
| COc1ccccc1OP(C)(=O)Nc1ccccc1Br (configuration not stated) | inactive: 2.39% |
| CP(=O)(Nc1ccc(Cl)cc1)Oc1ccc(F)cc1 (configuration not stated) | inactive: 11.6% |
| O=C(OCCCN1CCCC1)C(O)(c1ccccc1)C1CCCCC1 (configuration not stated) | inactive: 2.29% |
| COc1ccccc1OP(C)(=O)Nc1c(C)n(C)n(-c2ccccc2)c1=O (configuration not stated) | inactive: -2.8% |
| CP(=O)(Oc1ccccc1)N1CCOC1=O (configuration not stated) | inactive: -0.119% |
| COc1ccc(OP(C)(=O)Nc2ccc(Br)cc2)cc1 (configuration not stated) | inactive: 3.15% |
| CCN(CC)CC(O)COC(=O)C(O)(c1ccccc1)C1CCCCC1 (configuration not stated) | inactive: 3.62% |
| CP(=O)(Nc1ccccn1)Oc1ccccc1 (configuration not stated) | inactive: -27.3% |
| CCc1ccc(OP(C)(=O)O)cc1 | inactive: -11.9% |
| O=[N+]([O-])c1cc([N+](=O)[O-])c(Nc2ccccn2)c([N+](=O)[O-])c1 | inactive: 0.372% |
| Cc1c(NP(C)(=O)Oc2ccc(C(C)C)cc2)c(=O)n(-c2ccccc2)n1C (configuration not stated) | inactive: -6.11% |
| COc1ccc(OP(C)(=O)Nc2ccccn2)cc1 (configuration not stated) | inactive: -0.586% |

| SMILES | activity, negative = inhibition |
| --- | --- |
| CN(C)CCOC(=O)C(O)(c1ccccc1)C1CCCC1 (configuration not stated) | inactive: -15.9% |
| COc1ccccc1OP(C)(=O)Nc1ccc(Br)cc1 (configuration not stated) | inactive: -1.9% |
| CP(=O)(OCCOc1ccccc1)OCCOc1ccccc1 | inactive: -8.52% |
| CP(=O)(Nc1ccc(Cl)cc1Cl)Oc1ccccc1 (configuration not stated) | inactive: 15.6% |
| Cc1nc2ccc3ccccc3c2o1.O=[N+]([O-])c1cc([N+](=O)[O-])c(O)c([N+](=O)[O-])c1 | inactive: 2.98% |
| COc1ccccc1OP(C)(=O)Nc1ccc(C)c(C)c1 (configuration not stated) | inactive: -4.78% |
| COc1ccc(OP(C)(=O)Nc2ccccc2Br)cc1 (configuration not stated) | inactive: -2.92% |
| Cc1cc(C)cc(OP(C)(=O)Nc2cccc(C(F)(F)F)c2)c1 (configuration not stated) | inactive: -1.47% |
| CP(=O)(Nc1ccccc1)Oc1ccc(F)cc1 (configuration not stated) | inactive: -16.8% |
| CCCCCOc1ccc(NP(C)(=O)Oc2ccc(Cl)cc2Cl)cc1 (configuration not stated) | inactive: -23.4% |
| CCN(CC)CCCOC(=O)C(O)(c1ccccc1)C1CCCCC1 (configuration not stated) | inactive: 2% |
| CCOC(=O)c1ccc(NP(C)(=O)Oc2ccc(F)cc2)cc1 (configuration not stated) | inactive: 1.14% |
| COc1ccc(OP(C)(=O)Nc2ccc(SC(F)(F)F)cc2)cc1 (configuration not stated) | inactive: -15.4% |
| O=C(OCCN1CCN(CCOCc2ccccc2)CC1)C(O)(c1ccccc1)c1ccccc1 | inactive: -5.39% |
| CP(=O)(Nc1ccccc1F)Oc1ccccc1 (configuration not stated) | inactive: 1.72% |
| CC(C)c1ccc(OP(C)(=O)Nc2ccc(SC(F)(F)F)cc2)cc1 (configuration not stated) | inactive: -24.5% |
| Cc1ccccc1NP(C)(=O)Nc1ccccc1C | inactive: 5.03% |
| CP(=O)(Nc1ccc2c(c1)OCCO2)Oc1ccccc1 (configuration not stated) | inactive: -17.2% |
| CCOP(C)(=S)SCC(=O)NC(C)(CC)C(=O)O (configuration not stated) | inactive: -7.66% |
| CP(=O)(Nc1ccc(SC(F)(F)F)cc1)Oc1ccc(F)cc1 (configuration not stated) | inactive: -21.9% |
| O=[N+]([O-])c1ccc(OP2(=O)COCCO2)cc1 (configuration not stated) | inactive: 6.92% |
| Cc1cc(-c2cccc3ccccc23)c(C)cn1.O=[N+]([O-])c1cc([N+](=O)[O-])c(O)c([N+](=O)[O-])c1 | inactive: 10.2% |
| CN(C)CCOC(=O)C(O)(c1ccccc1)C1CCCCC1 (configuration not stated) | inactive: -12.3% |
| COc1ccc(NP(C)(=O)Oc2ccccc2OC)cc1 (configuration not stated) | inactive: -7.89% |
| COc1ccc(OP(C)(=O)Nc2cccc(Br)c2)cc1 (configuration not stated) | inactive: 7.63% |
